Results from article PMC4527783 (PLoS ONE, 2015).

The chains behind the UniProt entries cited, without tags or fusion partners. Where a name states a change or a piece, a line headed by the entry shows the natural chain unless it says otherwise.
UniProt P41146: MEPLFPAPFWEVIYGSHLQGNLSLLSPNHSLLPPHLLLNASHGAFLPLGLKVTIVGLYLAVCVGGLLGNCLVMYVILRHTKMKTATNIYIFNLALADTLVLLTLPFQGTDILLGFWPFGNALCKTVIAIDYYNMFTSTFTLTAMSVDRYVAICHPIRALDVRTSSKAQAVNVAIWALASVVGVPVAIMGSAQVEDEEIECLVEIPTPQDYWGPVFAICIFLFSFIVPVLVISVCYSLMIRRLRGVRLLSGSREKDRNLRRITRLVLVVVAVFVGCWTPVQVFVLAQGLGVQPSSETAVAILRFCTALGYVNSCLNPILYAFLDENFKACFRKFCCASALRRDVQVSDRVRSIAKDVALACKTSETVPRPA

Key:
[1] = molecular target: T1, human NOP-RLuc/β-arrestin 2-RGFP (Homo sapiens, UniProt P41146); experiment: BRET NOP/β-arrestin 2 interaction, antagonist potency vs N/OFQ, whole cells
[2] = molecular target: human NOP-RLuc/Gβ1-RGFP (Homo sapiens, UniProt P41146); experiment: BRET NOP/G-protein interaction, agonist concentration-response, cell membranes
[3] = molecular target: T1, human NOP-RLuc/β-arrestin 2-RGFP; experiment: BRET NOP/β-arrestin 2 interaction, agonist concentration-response, whole cells

`CCn1c(=O)n([C@@H]2CCN(CC3CCCCCCC3)C[C@H]2CO)c2ccccc21` was tested, and the “antagonism of N/OFQ, β-arrestin 2 (in words)” value [1] was “expected competitive inhibition”, the “pEC50 (CL95%), G protein” value ([2]; HEK293 membranes (3 μg protein), DPBS, 5 μM coelenterazine, 5 min incubation, room temperature, at least 5 experiments in duplicate, inactive = no BRET stimulation up to 10 μM) was “inactive” and the “effect on basal BRET ratio, G protein” value ([2]; membranes) was “did not modify the basal BRET ratio”. The “pEC50, G protein (Table 3)” value ([2]; membranes, 5 min, summary Table 3, inactive up to 1 μM) was “inactive”, the “pEC50 (CL95%), β-arrestin 2” value ([3]; whole HEK293 cells (100,000/well), DPBS with 0.5 mM MgCl2, 0.9 mM CaCl2, 5 μM coelenterazine, 5 min incubation, room temperature, at least 5 experiments in duplicate, inactive up to 10 μM) was “inactive” and the “effect on basal BRET ratio / receptor/arrestin stimulation” value ([3]; whole cells) was “did not modify the basal BRET ratio”.
